Here are results for 4 compounds from patent publication US20260382774A1, “DECREASED RETENTION OF MINIPROTEINS IN KIDNEY” (published 2026).

Chains of the proteins cited; added tags and fusions are not shown. Residues count along the entry.
UniProt Q5ZPR3, 29-534 limits assumed: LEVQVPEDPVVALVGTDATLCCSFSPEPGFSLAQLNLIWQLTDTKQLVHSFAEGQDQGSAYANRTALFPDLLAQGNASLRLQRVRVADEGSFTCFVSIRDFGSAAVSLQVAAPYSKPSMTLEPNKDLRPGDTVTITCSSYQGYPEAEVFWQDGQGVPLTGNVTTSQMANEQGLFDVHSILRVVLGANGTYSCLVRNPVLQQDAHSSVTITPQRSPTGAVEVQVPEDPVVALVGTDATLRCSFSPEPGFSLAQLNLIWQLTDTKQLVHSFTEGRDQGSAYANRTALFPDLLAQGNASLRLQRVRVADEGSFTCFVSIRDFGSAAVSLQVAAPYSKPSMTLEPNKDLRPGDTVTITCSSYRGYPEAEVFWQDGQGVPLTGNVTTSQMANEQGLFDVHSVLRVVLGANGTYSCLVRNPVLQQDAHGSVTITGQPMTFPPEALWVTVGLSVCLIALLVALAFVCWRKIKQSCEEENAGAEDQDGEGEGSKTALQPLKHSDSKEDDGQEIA

A short description of data set [1]: In vitro metabolic stability in mouse plasma.
A short description of data set [2]: Radionuclide incorporation of DOTA-compounds (thin-layer chromatography).
Data set [3] can be described thus: In vivo biodistribution of 111In-labeled test articles, SPECT/CT, kidney. To be noted: FIG. 1; Nectin-4 charge variant conjugates; 4 and 24 hours post-administration.
Data set [4] has as its target T1, B7H3 (Homo sapiens, UniProt Q5ZPR3). Nature of the data set: DELFIA whole cell binding assay (KD, Ki), B7H3. The following applies: read-out: DELFIA Ki, Table 4A.
For data set [5], the target named is T1, B7H3. Put plainly: Surface plasmon resonance binding, B7H3. The following applies: read-out: SPR KD, Table 4A. (Surface plasmon resonance follows binding to a sensor surface in real time, without labels.)

Turning to `CC[C@H](C)[C@@H]1NC(=O)[C@H](CC(=O)O)NC(=O)CNC(=O)CNC(=O)[C@H](CCCNC(=N)N)NC(=O)[C@H](CC(C)C)NC(=O)[C@H](CCCNC(=N)N)NC(=O)[C@H](CCCCN)NC(=O)[C@H](CC(C)C)NC(=O)[C@H](C)NC(=O)[C@H]([C@@H](C)O)NC(=O)[C@H](Cc2ccccc2)NC(=O)[C@H](Cc2ccccc2)NC(=O)[C@H](CCC(=O)O)NC(=O)[C@H](CCC(=O)O)NC(=O)[C@H](CC(=O)O)NC(=O)[C@H](Cc2ccc(O)cc2)NC(=O)[C@H](CCC(=O)O)NC(=O)[C@@H](NC(=O)CCOCCOCCOCCOCCNC(=O)CN2CCN(CC(=O)O)CCN(CC(=O)O)CCN(CC(=O)O)CC2)CSSC[C@@H]2NC(=O)[C@H](CC(C)C)NC(=O)[C@H](CCCCNC(C)=O)NC(=O)[C@@H]3CCCN3C(=O)[C@H](C(C)C)NC(=O)[C@H](CCCCNC(C)=O)NC(=O)[C@H](CCCCNC(C)=O)NC(=O)[C@H](Cc3ccccc3)NC(=O)[C@H](CCCCNC(C)=O)NC(=O)[C@H](CCCCNC(C)=O)NC(=O)[C@H](CCCCNC(C)=O)NC(=O)[C@H]([C@@H](C)CC)NC(=O)[C@H](Cc3ccc(O)cc3)NC(=O)[C@H](Cc3ccc(O)cc3)NC(=O)[C@H](CSSC[C@@H](C(N)=O)NC(=O)CNC(=O)[C@H](CC(C)C)NC(=O)[C@H](CCCCN)NC(=O)[C@H](CC(=O)O)NC(=O)[C@H](CC(C)C)NC(=O)[C@H]([C@@H](C)CC)NC(=O)[C@H](CCC(=O)O)NC(=O)[C@H](CCC(=O)O)NC(=O)[C@H]([C@@H](C)CC)NC2=O)NC1=O`, the “mPlasma (t½ hr)” value in data set [1] was greater than 12 h. In addition, in data set [2] (Indium-111), the “% radionuclide incorporation” value is 99%. Besides, in data set [3], the kidney retention result is “Reduced levels of kidney retention”.
For the compound `CCCC[C@H](NC(=O)[C@@H](NC(=O)[C@H](CCC(N)=O)NC(=O)CNC(=O)[C@H](Cc1c[nH]cn1)NC(=O)[C@@H](NC(=O)[C@H](CC(C)C)NC(=O)[C@H](CC(N)=O)NC(=O)[C@@H]1CCCN1C(=O)[C@H](CC(C)C)NC(=O)[C@H](Cc1c[nH]c2ccccc12)NC(=O)[C@@H](NC(=O)[C@@H](NC(=O)[C@H](CCC(=O)O)NC(=O)[C@H](CO)NC(=O)[C@H](CC(C)C)NC(=O)[C@H](C)NC(=O)[C@H](C)NC(=O)[C@@H](NC(=O)[C@H](CCCCN)NC(=O)[C@H](CCC(=O)O)NC(=O)[C@H](CCCCN)NC(=O)[C@H](C)NC(=O)[C@H](Cc1ccc(O)cc1)NC(=O)[C@H](CCCCN)NC(=O)[C@H](C)NC(=O)[C@H](CCC(=O)O)NC(=O)[C@H](C)NC(=O)CCOCCOCCOCCOCCNC(=O)[C@H](CCCNC(N)=O)NC(=O)[C@@H](NC(=O)[C@H](CCC(=O)O)NC(=O)CCOCCOCCOCCOCCNC(=O)CN1CCN(CC(=O)O)CCN(CC(=O)O)CCN(CC(=O)O)CC1)C(C)C)[C@@H](C)CC)[C@@H](C)CC)[C@@H](C)CC)[C@@H](C)O)[C@@H](C)CC)C(=O)N[C@@H](C)C(=O)N[C@@H](Cc1ccccc1)C(=O)N[C@H](C(=O)N[C@@H](C)C(=O)N[C@@H](C)C(=O)N[C@@H](CC(C)C)C(=O)N[C@@H](CC(N)=O)C(=O)N[C@@H](CC(=O)O)C(=O)N[C@@H](CC(=O)O)C(=O)N1CCC[C@H]1C(=O)N[C@@H](CO)C(=O)N[C@@H](CCC(N)=O)C(=O)N[C@@H](CO)C(=O)N[C@@H](CO)C(=O)N[C@@H](CCC(=O)O)C(=O)N[C@@H](CC(C)C)C(=O)N[C@@H](CC(C)C)C(=O)N[C@@H](CO)C(=O)N[C@@H](CCC(=O)O)C(=O)N[C@@H](C)C(=O)N[C@@H](CCCCN)C(=O)N[C@@H](CCCCN)C(=O)N[C@@H](CC(C)C)C(=O)N[C@@H](CC(N)=O)C(=O)N[C@@H](CC(=O)O)C(=O)N[C@@H](CO)C(=O)N[C@@H](CCC(N)=O)C(=O)N[C@@H](C)C(=O)N1CCC[C@H]1C(=O)N[C@@H](CCCCN)C(N)=O)[C@@H](C)CC.[In+3]`, the Ki in data set [4] amounted to 13.1 nM. Besides, the equilibrium dissociation constant (Kd) in data set [5] stood at 2.74 nM.
In the case of `CC[C@H](C)[C@@H]1NC(=O)[C@H](CC(=O)O)NC(=O)CNC(=O)CNC(=O)[C@H](CCCNC(N)=O)NC(=O)[C@H](CC(C)C)NC(=O)[C@H](CCCNC(N)=O)NC(=O)[C@H](CCCCNC(C)=O)NC(=O)[C@H](CC(C)C)NC(=O)[C@H](C)NC(=O)[C@H]([C@@H](C)O)NC(=O)[C@H](Cc2ccccc2)NC(=O)[C@H](Cc2ccccc2)NC(=O)[C@H](CCC(=O)O)NC(=O)[C@H](CCC(=O)O)NC(=O)[C@H](CC(=O)O)NC(=O)[C@H](Cc2ccc(O)cc2)NC(=O)[C@H](CCC(=O)O)NC(=O)[C@@H](NC(=O)CCOCCOCCOCCOCCNC(=O)CN2CCN(CC(=O)O)CCN(CC(=O)O)CCN(CC(=O)O)CC2)CSSC[C@@H]2NC(=O)[C@H](CC(C)C)NC(=O)[C@H](CCCCNC(C)=O)NC(=O)[C@@H]3CCCN3C(=O)[C@H](C(C)C)NC(=O)[C@H](CCCCNC(C)=O)NC(=O)[C@H](CCCCNC(C)=O)NC(=O)[C@H](Cc3ccccc3)NC(=O)[C@H](CCCCNC(C)=O)NC(=O)[C@H](CCCCNC(C)=O)NC(=O)[C@H](CCCCNC(C)=O)NC(=O)[C@H]([C@@H](C)CC)NC(=O)[C@H](Cc3ccc(O)cc3)NC(=O)[C@H](Cc3ccc(O)cc3)NC(=O)[C@H](CSSC[C@@H](C(N)=O)NC(=O)CNC(=O)[C@H](CC(C)C)NC(=O)[C@H](CCCCNC(C)=O)NC(=O)[C@H](CC(=O)O)NC(=O)[C@H](CC(C)C)NC(=O)[C@H]([C@@H](C)CC)NC(=O)[C@H](CCC(=O)O)NC(=O)[C@H](CCC(=O)O)NC(=O)[C@H]([C@@H](C)CC)NC2=O)NC1=O`, in data set [1], the “mPlasma (t½ hr)” value is greater than 12 h. For the same compound, the “% radionuclide incorporation” value is listed as 97% in data set [2] (Indium-111) and greater than 90% in data set [2] (Lutetium-177). Further, in data set [3], the kidney retention entry is reported as “Reduced levels of kidney retention”.
In the case of `CCCC[C@H](NC(=O)[C@@H](NC(=O)[C@H](CCC(N)=O)NC(=O)CNC(=O)[C@H](Cc1c[nH]cn1)NC(=O)[C@@H](NC(=O)[C@H](CC(C)C)NC(=O)[C@H](CC(N)=O)NC(=O)[C@@H]1CCCN1C(=O)[C@H](CC(C)C)NC(=O)[C@H](Cc1c[nH]c2ccccc12)NC(=O)[C@@H](NC(=O)[C@@H](NC(=O)[C@H](CCC(=O)O)NC(=O)[C@H](CO)NC(=O)[C@H](CC(C)C)NC(=O)[C@H](C)NC(=O)[C@H](C)NC(=O)[C@@H](NC(=O)[C@H](CCCCN)NC(=O)[C@H](CCC(=O)O)NC(=O)[C@H](CCCCN)NC(=O)[C@H](C)NC(=O)[C@H](Cc1ccc(O)cc1)NC(=O)[C@H](CCCCN)NC(=O)[C@H](C)NC(=O)[C@H](CCC(=O)O)NC(=O)[C@H](C)NC(=O)CCOCCOCCOCCOCCNC(=O)[C@H](CCCCN)NC(=O)[C@H](Cc1c[nH]c2ccccc12)NC(=O)[C@H](CCSC)NC(=O)CCOCCOCCOCCOCCNC(=O)CN1CCN(CC(=O)O)CCN(CC(=O)O)CCN(CC(=O)O)CC1)[C@@H](C)CC)[C@@H](C)CC)[C@@H](C)CC)[C@@H](C)O)[C@@H](C)CC)C(=O)N[C@@H](C)C(=O)N[C@@H](Cc1ccccc1)C(=O)N[C@H](C(=O)N[C@@H](C)C(=O)N[C@@H](C)C(=O)N[C@@H](CC(C)C)C(=O)N[C@@H](CC(N)=O)C(=O)N[C@@H](CC(=O)O)C(=O)N[C@@H](CC(=O)O)C(=O)N1CCC[C@H]1C(=O)N[C@@H](CO)C(=O)N[C@@H](CCC(N)=O)C(=O)N[C@@H](CO)C(=O)N[C@@H](CO)C(=O)N[C@@H](CCC(=O)O)C(=O)N[C@@H](CC(C)C)C(=O)N[C@@H](CC(C)C)C(=O)N[C@@H](CO)C(=O)N[C@@H](CCC(=O)O)C(=O)N[C@@H](C)C(=O)N[C@@H](CCCCN)C(=O)N[C@@H](CCCCN)C(=O)N[C@@H](CC(C)C)C(=O)N[C@@H](CC(N)=O)C(=O)N[C@@H](CC(=O)O)C(=O)N[C@@H](CO)C(=O)N[C@@H](CCC(N)=O)C(=O)N[C@@H](C)C(=O)N1CCC[C@H]1C(=O)N[C@@H](CCCCN)C(N)=O)[C@@H](C)CC.[In+3]`, the Ki in data set [4] is 13.6 nM. Moreover, the Kd in data set [5] is 5.57 nM.

Broadly, the Ki is a dissociation constant, usually derived from enzyme kinetics or from competition with a known ligand. A word on the Kd: it is a measure of binding affinity in units of concentration.
